How the values were obtained:
human GIPR [1] = target: T1, human GIPR (Homo sapiens, UniProt P48546); assay: Agonist activity on human GIPR, CRE-luciferase reporter assay with increase in intracellular cAMP as indicator; format: cell-based; conditions: hGIPR/CRE-LUC/CHO-K1 cells, 4 hours incubation, 10 nM GIP = 100%
T1 construct: expressed in transfected cells; host or cells: CHO-K1 (CRE-LUC/CHO-K1 reporter cell; hGIPR/CRE-LUC/CHO-K1 line)
T1 sequence (P48546 22-466): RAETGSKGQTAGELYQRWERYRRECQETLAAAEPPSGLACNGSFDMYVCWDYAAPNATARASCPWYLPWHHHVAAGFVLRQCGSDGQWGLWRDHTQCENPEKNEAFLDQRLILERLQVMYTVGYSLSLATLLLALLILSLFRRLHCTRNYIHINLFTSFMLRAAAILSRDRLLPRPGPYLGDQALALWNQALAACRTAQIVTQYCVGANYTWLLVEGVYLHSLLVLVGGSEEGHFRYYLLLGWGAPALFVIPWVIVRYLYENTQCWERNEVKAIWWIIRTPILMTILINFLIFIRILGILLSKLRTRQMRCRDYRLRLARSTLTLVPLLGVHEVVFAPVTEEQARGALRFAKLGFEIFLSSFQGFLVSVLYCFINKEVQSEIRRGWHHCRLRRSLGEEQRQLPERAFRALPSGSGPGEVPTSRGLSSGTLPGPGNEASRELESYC
Procedure: (2) Construction of Reporter Plasmid Expressing Cell
(4) Transfer of Human GIPR Gene to CRE-LUC/CHO-K1 Cell and Obtaining of Expressing Cell
Subsequently, the cell line inducing the luciferase expression, hGIPR/CRE-LUC/CHO-K1 cell, was selected from the obtained transformant by adding GIP.
(§1) Steady-Glo (Promega) was added in amounts of 30 μL and shaken under light shielding. 20 Minutes later, luciferase activity was measured using a plate reader Envision (PerkinElmer).

By UniProt entry, the sequences of proteins in these tests, tags left out. Residues count along the entry.
UniProt P43220, 24-463: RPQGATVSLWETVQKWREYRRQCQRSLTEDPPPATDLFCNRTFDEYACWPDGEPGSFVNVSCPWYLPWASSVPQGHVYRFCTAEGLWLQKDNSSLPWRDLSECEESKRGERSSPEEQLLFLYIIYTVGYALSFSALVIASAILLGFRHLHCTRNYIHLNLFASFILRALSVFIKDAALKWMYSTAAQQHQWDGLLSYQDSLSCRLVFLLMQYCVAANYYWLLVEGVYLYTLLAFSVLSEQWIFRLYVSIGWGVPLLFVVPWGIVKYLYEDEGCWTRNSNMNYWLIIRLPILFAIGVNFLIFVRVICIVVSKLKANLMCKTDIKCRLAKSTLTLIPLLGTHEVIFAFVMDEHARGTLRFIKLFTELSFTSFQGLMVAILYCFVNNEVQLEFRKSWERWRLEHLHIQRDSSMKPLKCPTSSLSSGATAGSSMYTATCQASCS

human GLP-1R = target: T2, human GLP-1R (Homo sapiens, UniProt P43220); assay: Agonist activity on human GLP-1R, CRE-luciferase reporter assay with increase in intracellular cAMP as indicator; format: cell-based; conditions: hGLP-1R/CRE-luc/CHO-K1 cells, 4 hours incubation, 10 nM GLP-1 = 100%
T2 construct: expressed in transfected cells; host or cells: CHO-K1 (hGLP-1R/CRE-luc/CHO-K1 line)
Description: (3) Construction of Reporter Plasmid
(5) Construction of Expression Plasmid of Human GLP-1R Gene
(6) Transfer of Human GLP-1R Gene and Reporter Plasmid to CHO-K1 Cell and Obtaining of Expressing Cell
The Cre-luc (Zeo) obtained in (3) and the plasmid hGLP-1/pIRESneo3 obtained in (5) were transferred to the CHO-K1 cell to obtain a transformant. Subsequently, the cell line inducing the luciferase expression, hGLP-1R/CRE-luc/CHO-K1 cell, was selected from the obtained transformant by adding GLP-1.
as §1

human GIPR [2] = target: T1, human GIPR; assay: Binding activity to human GIPR using [125I]-GIP (GIPR_VLP); conditions: [125I]GIP 100 pM, room temperature 2 hours
Procedure: The GF/C glass fiber filter 96-well plate in which VLP was trapped was dried at 42° C. overnight. Thereafter, MicroScint-O (PerkinElmer 6013611) was added to the GF/C glass fiber filter 96-well plate sealed using a backseal and the plate was sealed using a topseal.

| Substance | EC50 (human GIPR [1]) [nM] | EC50 (human GLP-1R) [nM] | IC50 (human GIPR [2]) [nM] |
| --- | --- | --- | --- |
| Me-Tyr-Aib-Glu-Gly-Thr-Iva-Ile-Ser-Asp-Tyr-Ser-Ile-Aib-Leu-Asp-Arg-Lys(Oda-GGGGGG-)-His-Gln-Aib-Asn-Phe-Val-Asn-Trp-Iva-Leu-Ala-Gln-Arg-Pro-Ser-Ser-Gly-Ala-Pro-Pro-Pro-Ser-Arg-NH2 [Compound 486] | 0.025 | > 1000 | 17 |
| Me-Tyr-Aib-Glu-Gly-Thr-Iva-Ile-Ser-Asp-Tyr-Ser-Ile-Aib-Lys(Eda-GGGGG-)-Asp-Arg-Aib-His-Gln-Aib-Asn-Phe-Val-Asn-Trp-Iva-Leu-Ala-Gln-Arg-Pro-Ser-Ser-Gly-Ala-Pro-Pro-Pro-Ser-NH2 [Compound 475] | 0.042 | > 1000 | 8.9 |
| H-Tyr-Aib-Glu-Gly-Thr-Val-Lys-Ser-Asp-Tyr-Ser-Ile-Leu-Leu-Asp-Lys-Gln-Ala-Gln-Aib-Glu-Phe-Val-Lys-Trp-Leu-Leu-Lys-Gly-Gly-Pro-Ser-Ser-Gly-Ala-Pro-Pro-Pro-Ser-Lys-NH2 [Compound 10] | 0.016 | > 1000 | 5.8 |
| Me-Tyr-Aib-Glu-Gly-Thr-Iva-Ile-Ser-Asp-Tyr-Ser-Ile-Aib-Lys(Eda-GGGGGG-)-Asp-Arg-Aib-Ala-Gln-Aib-Asn-Phe-Val-Asn-Trp-Iva-Leu-Ala-Gln-Arg-Pro-Ser-Ser-Gly-Ala-Pro-Pro-Pro-Ser-NH2 [Compound 342] | 0.045 | > 1000 | 13 |
| Methyl-Tyr-Aib-Glu-Gly-Thr-Phe-Ile-Ser-Asp-Tyr-Ser-Ile-Ala-Leu-Asp-Arg-Ile-Ala-Gln-Gln-Asp-Phe-Val-Asn-Trp-Leu-Leu-Ala-Gln-Arg-Pro-Ser-Ser-Gly-Ala-Pro-Pro-Pro-Ser-Arg-NH2 [Compound 59] | – | > 1000 | 1.1 |
| Methyl-Tyr-Aib-Glu-Gly-Thr-Iva-Ile-Ser-Asp-Tyr-Ser-Ile-Ala-Leu-Asp-Arg-Aib-Ala-Gln-Aib-Asn-Phe-Val-Asn-Trp-Leu-Leu-Ala-Gln-Arg-Pro-Ser-Ser-Gly-Ala-Pro-Pro-Pro-Ser-Arg-NH2 [Compound 104] | 0.0014 | > 1000 | 1.5 |
| Me-Tyr-Aib-Glu-Gly-Thr-Iva-Ile-Ser-Asp-Tyr-Ser-Ile-Aib-Lys(Heda-GGGGG-)-Asp-Arg-Aib-Ala-Gln-Aib-Asn-Phe-Val-Asn-Trp-Iva-Leu-Ala-Gln-Arg-Pro-Ser-Ser-Gly-Ala-Pro-Pro-Pro-Ser-NH2 [Compound 445] | 0.0056 | > 1000 | 0.92 |
| Me-Tyr-Aib-Glu-Gly-Thr-Iva-Ile-Ser-Asp-Tyr-Ser-Ile-Aib-Leu-Asp-Arg-Lys(Oda-GGGGGG-)-Ala-Gln-Aib-Asn-Phe-Val-Asn-Trp-Iva-Leu-Ala-Gln-Arg-Pro-Ser-Ser-Gly-Ala-Pro-Pro-Pro-Ser-NH2 [Compound 496] | 0.013 | > 1000 | 10 |
| Me-Tyr-Aib-Glu-Gly-Thr-Iva-Ile-Ser-Asp-Tyr-Ser-Ile-Aib-Leu-Asp-Arg-Lys(Oda-GGGGGG-)-His-Gln-Aib-Asn-Phe-Val-Asn-Trp-Iva-Leu-Ala-Gln-Arg-Pro-Ser-Ser-Gly-Ala-Pro-Pro-Pro-Ser-NH2 [Compound 492] | 0.018 | > 1000 | 13 |
| Me-Tyr-Aib-Glu-Gly-Thr-Iva-Ile-Ser-Asp-Tyr-Ser-Ile-Aib-Leu-Asp-Arg-Lys(Oda-GGGGG-)-His-Gln-Aib-Asn-Phe-Val-Asn-Trp-Iva-Leu-Ala-Gln-Arg-Pro-Ser-Ser-Gly-Ala-Pro-Pro-Pro-Ser-NH2 [Compound 491] | 0.017 | > 1000 | 13 |
| Me-Tyr-Aib-Glu-Gly-Thr-Iva-Ile-Ser-Asp-Tyr-Ser-Ile-Aib-Lys(Hepda-GGGGG-)-Asp-Arg-Aib-Ala-Gln-Aib-Asn-Phe-Val-Asn-Trp-Iva-Leu-Ala-Gln-Arg-Pro-Ser-Ser-Gly-Ala-Pro-Pro-Pro-Ser-NH2 [Compound 465] | 0.0056 | > 1000 | 2.2 |
| Me-Tyr-Aib-Glu-Gly-Thr-Iva-Ile-Ser-Asp-Tyr-Ser-Ile-Aib-Leu-Asp-Arg-Lys(Heda-GGGGGG-)-His-Gln-Aib-Asn-Phe-Val-Asn-Trp-Iva-Leu-Ala-Gln-Arg-Pro-Ser-Ser-Gly-Ala-Pro-Pro-Pro-Ser-NH2 [Compound 503] | 0.0051 | > 1000 | 8 |
| H-Tyr-Aib-Glu-Gly-Thr-Val-Val-Ser-Leu-Tyr-Ser-Ile-Aib-Leu-Asp-Arg-Gln-Ala-Gln-Aib-Glu-Phe-Val-Arg-Trp-Leu-Leu-Arg-Gly-Gly-Pro-Ser-Ser-Gly-Ala-Pro-Pro-Pro-Ser-Arg-NH2 [Compound 30] | 0.01 | > 1000 | 1.3 |
| Me-Tyr-Aib-Glu-Gly-Thr-Iva-Ile-Ser-Asp-Tyr-Ser-Ile-Aib-Leu-Asp-Arg-Lys(Heda-GGGGGG-)-Ala-Gln-Aib-Asn-Phe-Val-Asn-Trp-Iva-Leu-Ala-Gln-Arg-Pro-Ser-Ser-Gly-Ala-Pro-Pro-Pro-Ser-NH2 [Compound 494] | 0.0044 | > 1000 | 3.2 |
| Me-Tyr-Aib-Glu-Gly-Thr-Iva-Ile-Ser-Asp-Tyr-Ser-Ile-Aib-Lys(Eda-GGGGG-)-Asp-Arg-Aib-Ala-Gln-Aib-Asn-Phe-Val-Asn-Trp-Iva-Leu-Ala-Gln-Arg-Pro-Ser-Ser-Gly-Ala-Pro-Pro-Pro-Ser-Arg-NH2 [Compound 473] | 0.032 | > 1000 | 6.8 |
| Me-Tyr-Aib-Glu-Gly-Thr-Iva-Ile-Ser-Asp-Tyr-Ser-Ile-Aib-Leu-Asp-Arg-Lys(Hepda-GGGGGG-)-Ala-Gln-Aib-Asn-Phe-Val-Asn-Trp-Iva-Leu-Ala-Gln-Arg-Pro-Ser-Ser-Gly-Ala-Pro-Pro-Pro-Ser-NH2 [Compound 495] | 0.0058 | > 1000 | 4.6 |
| H-MeTyr-Aib-Glu-Gly-Thr-Iva-Ile-Ser-Asp-Tyr-Ser-Ile-Aib-Leu-Asp-Arg-Lys(Eda-PEG(3)-PEG(3)-)-Ala-Gln-Aib-Asn-Phe-Val-Asn-Trp-Iva-Leu-Ala-Gln-Arg-Pro-Ser-Ser-Gly-Ala-Pro-Pro-Pro-Ser-NH2 [Compound 307] | 0.04 | > 1000 | 5 |
| Ac-Tyr-Aib-Glu-Gly-Thr-Iva-Ile-Ser-Asp-Tyr-Ser-Ile-Aib-Lys(Eda-GGGGG-)-Asp-Arg-Aib-Ala-Gln-Aib-Asn-Phe-Val-Asn-Trp-Iva-Leu-Ala-Gln-Arg-Pro-Ser-Ser-Gly-Ala-Pro-Pro-Pro-Ser-NH2 [Compound 435] | 0.051 | > 1000 | 18 |
| H-Tyr-Aib-Glu-Gly-Thr-Val-Val-Ser-Leu-Tyr-Ser-Ile-Aib-Leu-Asp-Lys-Gln-Ala-Gln-Aib-Glu-Phe-Val-Lys-Trp-Aib-Leu-Lys-Gly-Gly-Pro-Ser-Ser-Gly-Ala-Pro-Pro-Pro-Ser-Lys-NH2 [Compound 42] | 0.0069 | > 1000 | 1.1 |
| Methyl-Tyr-Aib-Glu-Gly-Thr-Iva-Ile-Ser-Asp-Tyr-Ser-Ile-Aib-Leu-Asp-Arg-Aib-Ala-Gln-Aib-Asn-Phe-Val-Asn-Trp-Iva-Leu-Ala-Gln-Arg-Pro-Ser-Ser-Gly-Ala-Pro-Pro-Pro-Ser-Arg-NH2 [Compound 113] | 0.0012 | > 1000 | 1.9 |
| Me-Tyr-Aib-Glu-Gly-Thr-Iva-Ile-Ser-Asp-Tyr-Ser-Ile-Aib-Lys(Heda-GGGGGG-)-Asp-Arg-Aib-Ala-Gln-Aib-Asn-Phe-Val-Asn-Trp-Iva-Leu-Ala-Gln-Arg-Pro-Ser-Ser-Gly-Ala-Pro-Pro-Pro-Ser-NH2 [Compound 457] | 0.0026 | > 1000 | 1.4 |
| Me-Tyr-Aib-Glu-Gly-Thr-Iva-Ile-Ser-Asp-Tyr-Ser-Ile-Aib-Leu-Asp-Arg-Lys(Hepda-GGGGG-)-His-Gln-Aib-Asn-Phe-Val-Asn-Trp-Iva-Leu-Ala-Gln-Arg-Pro-Ser-Ser-Gly-Ala-Pro-Pro-Pro-Ser-NH2 [Compound 502] | 0.0084 | > 1000 | – |
| Me-Tyr-Aib-Glu-Gly-Thr-Iva-Ile-Ser-Asp-Tyr-Ser-Ile-Aib-Lys(Eda-GGGGGG-)-Asp-Arg-Aib-His-Gln-Aib-Asn-Phe-Val-Asn-Trp-Iva-Leu-Ala-Gln-Arg-Pro-Ser-Ser-Gly-Ala-Pro-Pro-Pro-Ser-Arg-NH2 [Compound 522] | 0.12 | > 1000 | – |

From US11174301B2 (Takeda Pharmaceutical Company Limited, priority 2017, dated 2021)
